{"source": "ChEMBL document CHEMBL4765383", "about": "“Amphiphilic aminoglycosides with increased selectivity for inhibition of connexin 43 (Cx43) hemichannels” (Eur J Med Chem, 2020)", "experiment": "Inhibition of human Cx43 expressed in Escherichia coli LB2003 cells in medium containing 8 mM K+ and 10 uM IPTG by measuring cell growth after 18 hrs by plate reader"}
{"smiles": "NC[C@H]1O[C@H](O[C@H]2[C@H](O)[C@@H](O[C@H]3O[C@H](CO)[C@@H](O)[C@H](N)[C@H]3O)[C@H](N)C[C@@H]2N)[C@H](O)[C@@H](O)[C@@H]1O", "note": "[KANAMYCIN]", "values": [{"measurement": "IC50", "result": 48, "unit": "µM"}]}
